This is an account of results in patent publication US5807742A, “Neurokinin receptor cell lines” (Merrell Pharmaceuticals Inc., priority 1996, dated 1998).

Chains of the proteins cited; added tags and fusions are not shown.
UniProt P05363, whole entry: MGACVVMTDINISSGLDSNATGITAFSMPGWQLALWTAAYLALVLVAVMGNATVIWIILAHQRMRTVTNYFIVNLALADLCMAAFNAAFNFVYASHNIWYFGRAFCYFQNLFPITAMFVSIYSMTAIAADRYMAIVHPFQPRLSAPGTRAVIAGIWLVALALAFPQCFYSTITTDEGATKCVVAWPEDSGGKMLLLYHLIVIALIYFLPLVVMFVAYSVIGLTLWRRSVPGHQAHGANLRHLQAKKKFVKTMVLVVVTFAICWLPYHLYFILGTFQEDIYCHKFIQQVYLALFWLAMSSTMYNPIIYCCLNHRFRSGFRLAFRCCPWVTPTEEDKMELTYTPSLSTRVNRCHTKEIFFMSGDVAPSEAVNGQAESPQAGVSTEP
UniProt P51144, whole entry: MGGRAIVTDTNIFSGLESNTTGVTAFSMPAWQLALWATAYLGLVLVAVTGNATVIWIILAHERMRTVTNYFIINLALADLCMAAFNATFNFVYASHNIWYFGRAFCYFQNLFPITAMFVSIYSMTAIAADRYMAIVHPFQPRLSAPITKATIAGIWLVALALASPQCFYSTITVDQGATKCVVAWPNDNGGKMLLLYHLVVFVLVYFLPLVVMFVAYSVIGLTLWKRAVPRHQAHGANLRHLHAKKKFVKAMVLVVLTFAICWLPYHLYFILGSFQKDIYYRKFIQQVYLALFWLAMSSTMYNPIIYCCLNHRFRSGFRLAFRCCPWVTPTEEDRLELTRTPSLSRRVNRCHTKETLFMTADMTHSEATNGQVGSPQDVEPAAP

One experiment has as its target neurokinin A receptor (Bos taurus, UniProt P05363). In words: [125I]NKA receptor binding (saturation/Scatchard and competition) in B82 cells transfected with pSKR56S cDNA (SKLKB82#n). Also on record: species or system bovine. To be noted: SKLKB82#3 cells; FIG. 4.
Experiment [1] deals with NKA receptor (hamster urinary bladder) (Mesocricetus auratus, UniProt P51144). The experiment in a line: [125I]NKA receptor binding in hamster urinary bladder membranes (standard control). To be noted: FIG. 4.

For `CCCC[C@H](NC(=O)[C@H](CC(C)C)NC(=O)CNC(=O)[C@@H](NC(=O)[C@H](Cc1ccccc1)NC(=O)[C@H](CO)NC(=O)[C@@H](N)CC(=O)O)C(C)C)C(N)=O`, the “potency rank-order, inhibition of [125I]NKA receptor binding (KI)” value is “followed by Nle^10 NKA (4-10), substance P, and senktide” on neurokinin A receptor; “followed by Nle^10 NKA (4-10), substance P, and senktide” in experiment [1].
